Results: article PMC12051786, “Photoisomerization of Azobenzene‐Extended Charybdotoxin for the Optical Control of Kv1.2 Potassium Channel Activity” (Angewandte Chemie (International Ed. in English), 2025)
Where two headings read alike, the source gives them in different places.

Sequences of proteins named here, by UniProt entry; tags and fusion partners are left off.
UniProt P63141, whole entry: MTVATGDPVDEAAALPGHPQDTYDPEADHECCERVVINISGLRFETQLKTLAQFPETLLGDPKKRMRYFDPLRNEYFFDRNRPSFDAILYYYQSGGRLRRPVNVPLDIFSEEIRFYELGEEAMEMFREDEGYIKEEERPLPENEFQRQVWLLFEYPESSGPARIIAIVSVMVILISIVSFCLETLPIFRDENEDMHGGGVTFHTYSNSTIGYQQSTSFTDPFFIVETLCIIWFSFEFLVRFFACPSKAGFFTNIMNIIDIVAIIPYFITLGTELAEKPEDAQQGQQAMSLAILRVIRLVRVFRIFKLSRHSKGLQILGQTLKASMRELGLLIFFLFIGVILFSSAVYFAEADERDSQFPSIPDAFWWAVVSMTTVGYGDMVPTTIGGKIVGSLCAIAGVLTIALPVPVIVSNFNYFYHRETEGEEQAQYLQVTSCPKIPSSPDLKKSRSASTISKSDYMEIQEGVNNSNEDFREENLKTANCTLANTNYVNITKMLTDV

Legend:
mouse Kv1.2 channels = target: T1, mouse Kv1.2 channels (Mus musculus, UniProt P63141); test: Block of Kv1.2 K+ current, automated patch-clamp (SyncroPatch 384PE); type: cell-based; conditions: for Reduction in potency of the cis over the trans configuration: ratio of IC50 of cis component to trans IC50, Kv1.2
T1 construct: expressed in transfected cells; host or cells: L929 (mouse fibroblast) cell line stably expressing mKv1.2, kept under G418 selection

[1] = Photo-isomerization kinetics (trans/cis) followed by absorbance under illumination; type: physicochemical; conditions: for Ratio (t1/2 trans → cis / t1/2 cis → trans): fold faster back-switching to trans
[2] = type: physicochemical; conditions: absorbance spectra every 30 min, absorbance at 340 nm
[3] = Thermal stability of the cis isomer in the dark; conditions: after cis induction, followed over 24 h, conjugates in water, absorbance
[4] = ratio of t1/2 values, position 14

## C#CCNC(=O)c1ccc(/N=N/c2ccc(C(=O)NCc3cn(CC[C@@H]4NC(=O)[C@H]([C@@H](C)O)NC(=O)[C@@H](NC(=O)[C@H](CO)NC(=O)[C@@H](NC(=O)[C@H](CC(N)=O)NC(=O)[C@@H](NC(=O)[C@H](Cc5ccccc5)NC(=O)[C@@H]5CCC(=O)N5)[C@@H](C)O)C(C)C)CSSC[C@@H]5NC(=O)[C@H](CCCCN)NC(=O)CNC(=O)[C@H](CCCNC(=N)N)NC(=O)[C@H](CO)NC(=O)[C@H]([C@@H](C)O)NC(=O)[C@H](CC(N)=O)NC(=O)[C@H](Cc6c[nH]cn6)NC(=O)[C@H](CC(C)C)NC(=O)[C@H](CCCNC(=N)N)NC(=O)[C@H](CCC(N)=O)NC(=O)[C@@H]6CSSC[C@@H](C(=O)N[C@@H](Cc7ccc(O)cc7)C(=O)N[C@@H](CO)C(=O)O)NC(=O)[C@H](CCCNC(=N)N)NC(=O)[C@H](CSSC[C@H](NC(=O)[C@H](CCC(=O)O)NC(=O)[C@H](CCCCN)NC(=O)[C@H](CO)NC4=O)C(=O)N[C@@H](Cc4c[nH]c7ccccc47)C(=O)N[C@@H](CO)C(=O)N[C@@H](C(C)C)C(=O)N6)NC(=O)[C@H](CCCCN)NC(=O)[C@H](CCCCN)NC(=O)[C@H](CC(N)=O)NC(=O)[C@H](CCSC)NC5=O)nn3)cc2)cc1 [ChTx‐Ah^9‐Az1]
Mouse Kv1.2 channels
  Reduction in potency of the cis over the trans configuration: 218 fold
[1]
  Ratio (t1/2 trans → cis / t1/2 cis → trans): 4.1

## C#CCNC(=O)c1ccc(/N=N/c2ccc(C(=O)NCc3cn(CC[C@@H]4NC(=O)[C@H](CCCCN)NC(=O)[C@H](CO)NC(=O)[C@H]([C@@H](C)O)NC(=O)[C@H]([C@@H](C)O)NC(=O)[C@@H](NC(=O)[C@H](CO)NC(=O)[C@@H](NC(=O)[C@H](CC(N)=O)NC(=O)[C@@H](NC(=O)[C@H](Cc5ccccc5)NC(=O)[C@@H]5CCC(=O)N5)[C@@H](C)O)C(C)C)CSSC[C@@H]5NC(=O)[C@H](CCCCN)NC(=O)CNC(=O)[C@H](CCCNC(=N)N)NC(=O)[C@H](CO)NC(=O)[C@H]([C@@H](C)O)NC(=O)[C@H](CC(N)=O)NC(=O)[C@H](Cc6c[nH]cn6)NC(=O)[C@H](CC(C)C)NC(=O)[C@H](CCCNC(=N)N)NC(=O)[C@H](CCC(N)=O)NC(=O)[C@@H]6CSSC[C@@H](C(=O)N[C@@H](Cc7ccc(O)cc7)C(=O)N[C@@H](CO)C(=O)O)NC(=O)[C@H](CCCNC(=N)N)NC(=O)[C@H](CSSC[C@H](NC4=O)C(=O)N[C@@H](Cc4c[nH]c7ccccc47)C(=O)N[C@@H](CO)C(=O)N[C@@H](C(C)C)C(=O)N6)NC(=O)[C@H](CCCCN)NC(=O)[C@H](CCCCN)NC(=O)[C@H](CC(N)=O)NC(=O)[C@H](CCSC)NC5=O)nn3)cc2)cc1 [ChTx‐Ah^12‐Az1]
Mouse Kv1.2 channels; ratio of trans IC50 to cis IC50, Kv1.2
  Gain of potency of cis over trans configuration: 3.4 fold
[1]
  Ratio (t1/2 trans → cis / t1/2 cis → trans): 3.5

## C#CCNC(=O)c1ccc(/N=N/c2ccc(C(=O)NCc3cn(CC[C@@H]4NC(=O)[C@@H]5CSSC[C@@H]6NC(=O)[C@H](CCCCN)NC(=O)[C@H](CCCCN)NC(=O)[C@H](CC(N)=O)NC(=O)[C@H](CCSC)NC(=O)[C@H](CSSC[C@H](NC(=O)[C@H](CO)NC(=O)[C@@H](NC(=O)[C@H](CC(N)=O)NC(=O)[C@@H](NC(=O)[C@H](Cc7ccccc7)NC(=O)[C@@H]7CCC(=O)N7)[C@@H](C)O)C(C)C)C(=O)N[C@@H]([C@@H](C)O)C(=O)N[C@@H]([C@@H](C)O)C(=O)N[C@@H](CO)C(=O)N[C@@H](CCCCN)C(=O)N[C@@H](CCC(=O)O)C(=O)N5)NC(=O)[C@H](CCCCN)NC(=O)CNC(=O)[C@H](CCCNC(=N)N)NC(=O)[C@H](CO)NC(=O)[C@H]([C@@H](C)O)NC(=O)[C@H](CC(N)=O)NC(=O)[C@H](Cc5c[nH]cn5)NC(=O)[C@H](CC(C)C)NC(=O)[C@H](CCCNC(=N)N)NC(=O)[C@H](CCC(N)=O)NC(=O)[C@H](CSSC[C@@H](C(=O)N[C@@H](Cc5ccc(O)cc5)C(=O)N[C@@H](CO)C(=O)O)NC(=O)[C@H](CCCNC(=N)N)NC6=O)NC(=O)[C@H](C(C)C)NC(=O)[C@H](CO)NC4=O)nn3)cc2)cc1 [ChTx‐Ah^14‐Az1]
Mouse Kv1.2 channels; L929-mKv1.2 cells, 10 nM peptide, Az1 conjugate in trans, mean ± spread, n = 7-18
  Block of Kv1.2 current at 10 nM: 37 ± 6%
Mouse Kv1.2 channels; L929-mKv1.2 cells, 100 nM, cis-favored state (UV illumination), n = 7
  Block of Kv1.2 currents at 100 nM, cis conformer: 36 ± 8%
Mouse Kv1.2 channels; L929-mKv1.2 cells, 100 nM, trans state, n = 11
  Block of Kv1.2 currents at 100 nM, trans conformer: 71 ± 2%
Mouse Kv1.2 channels; from % block of Kv1.2 currents at 100 nM
  Cis conformer less potent than trans conformer at 100 nM: 2 fold
Mouse Kv1.2 channels
  Reduction in potency of the cis over the trans configuration: 34 fold
Mouse Kv1.2 channels; ratio of IC50 values, trans Az1 conjugate vs ChTx-Ah14
  Loss of potency versus ChTx-Ah14 (fold less potent): 2.5 fold
[1]
  Ratio (t1/2 trans → cis / t1/2 cis → trans): 4.1
[2]
  Time stable upon incubation with 10 mM GSH: at least 6 h
[2]; listed as ChTx-Ah14-Az1
  Time stable upon incubation with 10 mM GSH: > 6 h
[3]
  t1/2 of the cis conformation in the dark (thermal stability): exceeding 24 h

## CSCC[C@@H]1NC(=O)[C@@H]2CSSC[C@H](NC(=O)[C@H](CO)NC(=O)[C@@H](NC(=O)[C@H](CC(N)=O)NC(=O)[C@@H](NC(=O)[C@H](Cc3ccccc3)NC(=O)[C@@H]3CCC(=O)N3)[C@@H](C)O)C(C)C)C(=O)N[C@@H]([C@@H](C)O)C(=O)N[C@@H]([C@@H](C)O)C(=O)N[C@@H](CO)C(=O)N[C@@H](CCCCN)C(=O)N[C@@H](CCC(=O)O)C(=O)N[C@H]3CSSC[C@H](NC(=O)[C@H](CCCCN)NC(=O)[C@H](CCCCN)NC(=O)[C@H](CC(N)=O)NC1=O)C(=O)N[C@@H](CCCNC(=N)N)C(=O)N[C@H](C(=O)N[C@@H](Cc1ccc(O)cc1)C(=O)N[C@@H](CO)C(=O)O)CSSC[C@H](NC(=O)[C@H](C(C)C)NC(=O)[C@H](CO)NC(=O)[C@H](CCn1cc(CNC(=O)c4ccc(/N=N/c5ccc(C(=O)NCc6cn(CC[C@@H]7NC(=O)[C@@H]8CSSC[C@@H]9NC(=O)[C@H](CCCCN)NC(=O)[C@H](CCCCN)NC(=O)[C@H](CC(N)=O)NC(=O)[C@H](CCSC)NC(=O)[C@H](CSSC[C@H](NC(=O)[C@H](CO)NC(=O)[C@@H](NC(=O)[C@H](CC(N)=O)NC(=O)[C@@H](NC(=O)[C@H](Cc%10ccccc%10)NC(=O)[C@@H]%10CCC(=O)N%10)[C@@H](C)O)C(C)C)C(=O)N[C@@H]([C@@H](C)O)C(=O)N[C@@H]([C@@H](C)O)C(=O)N[C@@H](CO)C(=O)N[C@@H](CCCCN)C(=O)N[C@@H](CCC(=O)O)C(=O)N8)NC(=O)[C@H](CCCCN)NC(=O)CNC(=O)[C@H](CCCNC(=N)N)NC(=O)[C@H](CO)NC(=O)[C@H]([C@@H](C)O)NC(=O)[C@H](CC(N)=O)NC(=O)[C@H](Cc8c[nH]cn8)NC(=O)[C@H](CC(C)C)NC(=O)[C@H](CCCNC(=N)N)NC(=O)[C@H](CCC(N)=O)NC(=O)[C@H](CSSC[C@@H](C(=O)N[C@@H](Cc8ccc(O)cc8)C(=O)N[C@@H](CO)C(=O)O)NC(=O)[C@H](CCCNC(=N)N)NC9=O)NC(=O)[C@H](C(C)C)NC(=O)[C@H](CO)NC7=O)nn6)cc5)cc4)nn1)NC3=O)C(=O)N[C@@H](CCC(N)=O)C(=O)N[C@@H](CCCNC(=N)N)C(=O)N[C@@H](CC(C)C)C(=O)N[C@@H](Cc1c[nH]cn1)C(=O)N[C@@H](CC(N)=O)C(=O)N[C@@H]([C@@H](C)O)C(=O)N[C@@H](CO)C(=O)N[C@@H](CCCNC(=N)N)C(=O)NCC(=O)N[C@@H](CCCCN)C(=O)N2 [ChTx‐Ah^14‐Az1‐Ah^14‐ChTx]
[1]
  Ratio (t1/2 trans → cis / t1/2 cis → trans): 16.6
[1]; half isomerization time, illumination 435 nm, 9.5 mW cm−2, conjugates dissolved in water, absorbance
  t1/2 cis → trans [95% CI]: 2.7 s
[1]; [4]
  Reverse-switching to trans faster for the dimer compared to the monomer: 5.37 fold
  Trans to cis isomerization faster for the dimer compared to the monomer: 1.34 fold
[3]
  t1/2 of the cis conformation in the dark (thermal stability): exceeding 24 h
